The entries are a selection whose mix differs from that of the whole data set. Calls of active or inactive are those of the source.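 The calls were made as follows: active = NADPH fluorescence slope more negative than the mean of all samples by about 3 SD, 99.7% confidence; inactive = the rest.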
Molecular target: Voltage-gated potassium channel subunit beta-2 (Rattus norvegicus) (UniProt P62483)
Test: KvBeta positive modulators, primary screen, biochemical, NADPH fluorescence (AID 623);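 also: fluorescence intensity change per second fitted from 20 to 320 s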
Settings: Recombinant KvBeta, NADPH fluorescence decrease slope, 10 min; at 10 µM; active compounds read low

The chains behind the UniProt entries cited, without tags or fusion partners.
UniProt P62483, whole entry: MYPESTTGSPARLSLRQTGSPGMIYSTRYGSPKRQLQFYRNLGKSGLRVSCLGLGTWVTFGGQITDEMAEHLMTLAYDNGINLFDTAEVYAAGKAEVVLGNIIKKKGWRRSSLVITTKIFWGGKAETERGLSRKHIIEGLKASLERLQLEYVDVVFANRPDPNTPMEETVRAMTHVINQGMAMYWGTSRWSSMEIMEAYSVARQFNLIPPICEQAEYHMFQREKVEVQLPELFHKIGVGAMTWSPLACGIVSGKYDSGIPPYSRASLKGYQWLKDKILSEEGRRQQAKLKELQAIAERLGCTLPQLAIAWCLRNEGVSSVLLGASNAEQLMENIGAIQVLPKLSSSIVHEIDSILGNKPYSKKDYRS

Row | SMILES | NADPH fluorescence slope
1 | Fc1ccccc1NC1CCN(Cc2ccccc2)CC1 | inactive: -4.7e-05
